Here are results for one molecule from ChEMBL document CHEMBL2413051, “Antibacterial activity of quinoxalines, quinazolines, and 1,5-naphthyridines” (2013).

For the assay, the system named is Staphylococcus aureus. The experiment in a line: Ratio of MBC to MIC for methicillin-sensitive Staphylococcus aureus 8325-4. In kind it is functional. The method in brief: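 MBC/MIC ratio for MSSA 8325-4: MIC by CLSI broth microdilution (lowest concentration with ≥90% growth inhibition), MBC by a previously described method. Ratio 1–2 taken as bactericidal, ≥8 as bacteriostatic per CLSI; vancomycin and erythromycin run as bactericidal and bacteriostatic comparators.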

Take `CC[C@H]1OC(=O)[C@H](C)[C@@H](O[C@H]2C[C@@](C)(OC)[C@@H](O)[C@H](C)O2)[C@H](C)[C@@H](O[C@@H]2O[C@H](C)C[C@H](N(C)C)[C@H]2O)[C@](C)(O)C[C@@H](C)C(=O)[C@H](C)[C@@H](O)[C@]1(C)O` [ERYTHROMYCIN]: the Ratio came out at 256.
